Our source for the IC50 values is BindingDB's records for patent US12180207 (Array Biopharma, 2024).

Chains of the proteins cited; added tags and fusions are not shown.
UniProt P22607, whole entry: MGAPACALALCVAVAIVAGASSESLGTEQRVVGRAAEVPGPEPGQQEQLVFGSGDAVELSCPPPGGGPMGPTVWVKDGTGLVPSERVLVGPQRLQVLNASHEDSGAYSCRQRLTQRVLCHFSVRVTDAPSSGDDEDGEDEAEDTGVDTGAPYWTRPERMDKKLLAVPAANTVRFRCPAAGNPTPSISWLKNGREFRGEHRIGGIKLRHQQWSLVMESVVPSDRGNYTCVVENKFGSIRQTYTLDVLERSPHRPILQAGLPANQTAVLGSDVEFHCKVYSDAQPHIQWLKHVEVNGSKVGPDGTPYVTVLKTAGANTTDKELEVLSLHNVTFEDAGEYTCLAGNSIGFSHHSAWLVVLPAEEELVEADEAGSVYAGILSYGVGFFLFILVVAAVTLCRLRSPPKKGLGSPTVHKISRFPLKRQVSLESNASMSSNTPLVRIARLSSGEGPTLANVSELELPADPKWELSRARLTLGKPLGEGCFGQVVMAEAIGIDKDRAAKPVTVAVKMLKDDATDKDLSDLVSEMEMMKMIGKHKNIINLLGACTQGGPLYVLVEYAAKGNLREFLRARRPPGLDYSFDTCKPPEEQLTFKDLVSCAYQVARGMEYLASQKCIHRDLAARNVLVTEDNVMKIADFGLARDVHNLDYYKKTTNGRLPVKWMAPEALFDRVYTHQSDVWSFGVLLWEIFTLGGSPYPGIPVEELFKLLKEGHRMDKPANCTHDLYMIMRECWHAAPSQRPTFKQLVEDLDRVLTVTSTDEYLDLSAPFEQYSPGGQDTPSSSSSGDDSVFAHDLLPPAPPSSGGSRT

The IC50 is the concentration that gives 50% inhibition. Lower therefore signals inhibition by little substance.

Assay [1] deals with T1, Fibroblast growth factor receptor 3 (Homo sapiens, UniProt P22607). Kind of assay: Enzyme Assay. How it is done:
he potency of compounds inhibiting human isoforms of FGFR kinase was determined using Life Technologies' Homogeneous Time Resolved Fluorescence (HTRF)-based binding assay technology. […] After a 60 minute incubation at 22° C., the extent of tracer displacement was determined using a PerkinElmer EnVision multimode plate reader via HTRF dual wavelength detection, and the percent of control (POC) was calculated using a ratiometric emission factor. One hundred POC was determined using no test compound, and 0 POC was determined in the presence of 1 μM of an appropriate control inhibitor.

Assay [2] concerns the target T1, Fibroblast growth factor receptor 3. Description: FGFR3 Enzyme Activity Assay. The method, then: FGFR3 kinase activity was measured by the Invitrogen LanthaScreen™ Assay technology which directly measures the amount of substrate phosphorylation by TR-FRET using a fluorescently-labeled peptide and Europium-labeled antibody. Briefly, 750 μM N-terminal GST-HIS6 fusion protein with a 3C cleavage site recombinant human FGFR3 (amino acids R397-T806) (ProQinase Cat. No. 1068-0000-1) was incubated with 100 nM Alexa Fluor 647-Poly-GT Peptide Substrate (Life Technologies Cat. No. PV5836) and 25 μM ATP along with test compound in a buffer consisting of 250 mM HEPES, 25 mM MgCl2, 0.05% TritonX-100, pH 7.5, and 2% DMSO. Compounds were typically prepared in a threefold serial dilution in DMSO and added to the assay to give the appropriate final concentration. After a 10 minute incubation at 22° C., an equal volume of 2 nM LanthaScreen Eu-PY20 Antibody (Life Technologies Cat. No. PV5691) and 10 mM EDTA were added to quench the kinase reaction and start the detection reaction. After an additional 60 minute incubation at 22° C., the reaction was measured using a PerkinElmer EnVision multimode plate reader via TR-FRET dual wavelength detection, and the percent of control (POC) calculated using a ratiometric emission factor. 100 POC was determined using no test compounds and 0 POC was determined using no enzyme. […]

Regarding `C=CS(=O)(=O)N[C@H]1C[C@@H](C(=O)N2CCC(n3cc(-c4cc(OC)c5c(C#N)cnn5c4)cn3)CC2)C1` [US12180207, Example 193], the IC50 in assay [1] and in assay [2] was 2 nM each time. The compound `C=CS(=O)(=O)N[C@H]1C[C@H](C(=O)N2CCC(n3cc(-c4cc(OC)c5c(C#N)cnn5c4)cn3)CC2)C1` [US12180207, Example 194] returned an IC50 in assay [2] of 7 nM.
